Measured values published in paper PMC7721803, “Development of a penem antibiotic against Mycobacteroides abscessus” (Communications Biology, 2020).

Design: species or system BALB/c mice
Conditions: female, BALB/c, mouse, in vivo, 25 mg/kg, 1 h
Protocol: All procedures involving mice were approved by the Animal Care and Use Committee of Johns Hopkins University. T405 was dissolved in PBS. Uninfected female BALB/c mice, aged 6–7 weeks, were administered a single 25 mg/kg dose of T405 in 100 µL subcutaneously, either alone or in combination with probenecid (250 mg/kg) or cilastatin (25 mg/kg). Blood was sampled from three mice per group per time point by mandibular vein puncture or cardiac puncture at the following time points: 5, 15, 30, 60, 120, and 240 min post-dose. Plasma was separated in heparin-containing tubes and frozen. T405 concentrations in plasma were determined using a validated LC/MS-MS method developed in the Analytical Pharmacology Core of the Sidney Kimmel Comprehensive Cancer Center at Johns Hopkins University School of Medicine. Concentration–time data were analyzed by standard non-compartmental and compartmental techniques using WinNonlin (version 7.0; Pharsight, Mountain View, CA). A one-compartmental model was used to perform simulations to predict the plasma concentration–time profile after subcutaneous doses of 150, 300, and 450 mg/kg, alone and in combination with probenecid. A plasma free drug fraction of 2% of the total drug concentration was included in the simulations.

## C[C@@H](O)C1C(=O)N2C(C(=O)O)=C(SC3CN(C4=NCCS4)C3)SC12 (stereo in doubt) [T405]
  T405 concentration in blood: 65.6 ng/mL
